Assay [1] concerns the target T1, human opioid receptor-like (ORL-1) (Homo sapiens, UniProt P41146). Description: In vitro ORL-1 receptor binding assay ([3H]-nociceptin displacement). Particulars: read-out: ORL-1 Ki [Average ± Std Deviation].
Assay [2] concerns the target T1, human opioid receptor-like (ORL-1). The assay can be described thus: ORL-1 receptor [35S]GTPγS functional binding assay. Particulars: for EC50: read-out: GTPγS ORL-1 EC50 [mean ± SEM]. Format: biochemical. (In general: GTPγS is a poorly hydrolysed GTP analogue; its binding reports G protein activation.)
For the next assay, the target named is kappa opioid receptor (Homo sapiens, UniProt P41145). The assay can be described thus: In vitro kappa-opioid receptor binding assay ([3H]-U69,593 displacement). Particulars: read-out: Kappa opioid receptor Ki [Average ± Std Deviation].
Another assay addresses delta opioid receptor (Homo sapiens, UniProt P41143). Description: In vitro delta-opioid receptor binding assay ([3H]-Naltrindole displacement). Particulars: read-out: Delta opioid receptor Ki [Average ± Std Deviation].

Broadly, the EC50 is the concentration giving half of the maximal effect. In the case of `CC(C)ON=C(CCC(=O)O)c1nc2ccccc2n([C@H]2C[C@H]3CCC[C@@H](C2)N3C2CC3CCCC(C3)C2)c1=O` (stereo partly drawn), in assay [1], the Ki turned out to be 26.8 nM. In assay [2], the “GTPγS ORL-1 Emax [mean ± SEM]” value worked out at 39.33 ± 2.4% and the EC50 was determined as 5.2 nM.
The corresponding values for `CON=C(CCC(=O)O)c1nc2ccccc2n([C@H]2C[C@H]3CCC[C@@H](C2)N3C2CC3CCCC(C3)C2)c1=O` (stereo partly drawn) [Compound 2, 4-[4-((1R,3R)—(S)-9-bicyclo[3.3.1]non-3-yl-9-aza-bicyclo[3.3.1]non-3-yl)-3-oxo-3,4-dihydro-quinoxalin-2-yl]-4-methoxyimino-butyric acid] are 9.34 nM, 19 ± 4% and 19.5 nM.
The corresponding values for `O=C(O)CCC(=NOCCO)c1nc2ccccc2n([C@H]2C[C@H]3CCC[C@@H](C2)N3C2CC3CCCC(C3)C2)c1=O` (stereo partly drawn) [Compound 3, 4-[4-((1R,3R)—(S)-9-Bicyclo[3.3.1]non-3-yl-9-aza-bicyclo[3.3.1]non-3-yl)-3-oxo-3,4-dihydro-quinoxalin-2-yl]-4-(2-hydroxy-ethoxyimino)-butyric acid] are 18.7 nM, 20.6 ± 1.2% and 32.2 nM.
Turning to `O=C(O)CCC(=NO)c1nc2ccccc2n([C@H]2C[C@H]3CCC[C@@H](C2)N3C2CC3CCCC(C3)C2)c1=O` (stereo partly drawn) [Compound 7, 4-[4-((1R,3R)—(S)-9-bicyclo[3.3.1]non-3-yl-9-aza-bicyclo[3.3.1]non-3-yl)-3-oxo-3,4-dihydro-quinoxalin-2-yl]-4-hydroxyimino-butyric acid], the Ki in assay [1] was 5.64 nM.
With `CO/N=C(\CCC(=O)O)c1nc2ccccc2n([C@H]2C[C@H]3CCC[C@@H](C2)N3C2CCCCCCCCC2)c1=O` [Compound 9, 4-[4-((1R,3R,7S)-9-cyclodecyl-9-aza-bicyclo[3.3.1]non-3-yl)-3-oxo-3,4-dihydro-quinoxalin-2-yl]-4-methoxyimino-butyric acid], in assay [1], the Ki stood at 8.73 nM. In addition, in assay [2], the “GTPγS ORL-1 Emax [mean ± SEM]” value is given as 117.7 ± 4.2% and the EC50 was found to be 64 nM.
For `CO/N=C(\CCC(=O)O)c1nc2ccccc2n([C@H]2C[C@H]3CCC[C@@H](C2)N3C2CCCCCCCC2)c1=O` [Compound 10, 4-[4-((1R,3R,7S)-9-cyclononyl-9-aza-bicyclo[3.3.1]non-3-yl)-3-oxo-3,4-dihydro-quinoxalin-2-yl]-4-methoxyimino-butyric acid], in assay [2], the “GTPγS ORL-1 Emax [mean ± SEM]” value is listed as 101.7 ± 3.5%.
On to `CCO/N=C(\CCC(=O)O)c1nc2ccccc2n([C@H]2C[C@H]3CCC[C@@H](C2)N3C2CC3CCCC(C3)C2)c1=O` (stereo partly drawn) [Compound 11, 4-[4-((1R,3R,7S)-9-bicyclo[3.3.1]non-3-yl-9-aza-bicyclo[3.3.1]non-3-yl)-3-oxo-3,4-dihydro-quinoxalin-2-yl]-4-ethoxyimino-butyric acid], for which the Ki in assay [1] came to 26.6 nM. Also, in assay [2], the “GTPγS ORL-1 Emax [mean ± SEM]” value is given as 13.3 ± 0.3% and the EC50 amounted to 85 nM.
`CON=C(CCC(=O)O)c1nc2ccccc2n([C@H]2C[C@H]3CC[C@@H](C2)N3C2CC3CCCCC(C3)C2)c1=O` (stereo partly drawn) [Compound 12, 4-(4-((1R,3R)-8-(bicyclo[4.3.1]decan-8-yl)-8-azabicyclo[3.2.1]octan-3-yl)-3-oxo-3,4-dihydroquinoxalin-2-yl)-4-(methoxyimino)butanoic acid]: the Ki in assay [1] was 4.48 nM.
For `CON=C(CCC(=O)O)c1nc2ccccc2n([C@H]2C[C@H]3CC[C@@H](C2)N3C2CC3CCCC(C3)C2)c1=O` (stereo partly drawn) [Compound 14, 4-(4-((1R,3R)-8-(bicyclo[3.3.1]nonan-3-yl)-8-azabicyclo[3.2.1]octan-3-yl)-3-oxo-3,4-dihydroquinoxalin-2-yl)-4-(methoxyimino)butanoic acid], the “GTPγS ORL-1 Emax [mean ± SEM]” value in assay [2] was found to be 37.3 ± 0.3%.
On to `C/C(=N\OCC(=O)O)c1nc2ccccc2n([C@H]2C[C@H]3CCC[C@@H](C2)N3C2CC3CCCC(C3)C2)c1=O` (stereo partly drawn) [Compound 16], for which the Ki in assay [1] was 25.7 nM. Further, in assay [2], the “GTPγS ORL-1 Emax [mean ± SEM]” value stood at 23.33 ± 2.96% and the EC50 was 48.5 nM.
Consider `O=C(O)CCC(=NO)c1nc2ccccc2n([C@H]2C[C@H]3CCC[C@@H](C2)N3C2CCCCCCCCC2)c1=O` [Compound 18], for which, in assay [1], the Ki came out at 11.3 nM. Further, in assay [2], the “GTPγS ORL-1 Emax [mean ± SEM]” value came to 106.67 ± 5.78% and the EC50 came out at 77.8 nM.
For the molecule `C/C(=N\OCC(=O)O)c1nc2ccccc2n([C@H]2C[C@H]3CCC[C@@H](C2)N3C2CCCCCCCCC2)c1=O` [Compound 21], in assay [2], the “GTPγS ORL-1 Emax [mean ± SEM]” value was determined as 108 ± 1.73%.
Consider `CCN(CC)CCO/N=C(\CCC(=O)O)c1nc2ccccc2n(C2C[C@H]3CCC[C@@H](C2)N3C2C[C@@H]3C[C@@H](C)C[C@H](C2)C3)c1=O` (stereo partly drawn) [Compound 27], for which the Ki in assay [1] stood at 3.09 nM. For the same molecule, in assay [2], the “GTPγS ORL-1 Emax [mean ± SEM]” value was 24 ± 0.71% and the concentration for a half-maximal effect (EC50) stood at 4.97 nM.
Regarding `CC1CC2CC(C1)CC(N1[C@@H]3CCC[C@H]1C[C@@H](n1c(=O)c(/C(CCC(=O)O)=N/OCCN(C)C)nc4ccccc41)C3)C2` (stereo partly drawn) [Compound 29], the Ki in assay [1] turned out to be 3.33 nM. Also, in assay [2], the “GTPγS ORL-1 Emax [mean ± SEM]” value amounted to 20.5 ± 1.2% and the EC50 was 3.1 nM.
The corresponding values for `CCON=C(C(=O)O)c1nc2ccccc2n([C@H]2C[C@H]3CCC[C@@H](C2)N3C2CC3CCCCC(C3)C2)c1=O` (stereo partly drawn) [Compound 32, 2-(4-((1R,3R)-9-(bicyclo[4.3.1]decan-8-yl)-9-azabicyclo[3.3.1]nonan-3-yl)-3-oxo-3,4-dihydroquinoxalin-2-yl)-2-(ethoxyimino)acetic acid] are 1.64 nM, 82 ± 8% and 16.6 nM.
Consider `NC(=O)/C(=N\OCC(=O)O)c1nc2ccccc2n([C@H]2C[C@H]3CCC[C@@H](C2)N3C2CC3CCCC(C3)C2)c1=O` (stereo partly drawn) [Compound 40], for which, in assay [2], the “GTPγS ORL-1 Emax [mean ± SEM]” value is 34.7 ± 3.8%.
As for `CNC(=O)CCC(=NOCC(=O)O)c1nc2ccccc2n([C@H]2C[C@H]3CCC[C@@H](C2)N3C2CC3CCCC(C3)C2)c1=O` (stereo partly drawn) [Compound 42, 2-(((1-(4-((1R,1′R,3r,3′R,5S,5′S)-[3,9′-bi(9′-azabicyclo[3.3.1]nonan)]-3′-yl)-3-oxo-3,4-dihydroquinoxalin-2-yl)-4-(methylamino)-4-oxobutylidene)amino)oxy)acetic acid], in assay [1], the Ki was found to be 33.6 nM.
The same measure, in the same setting: the value for `NC(=O)CCC(=NOCC(=O)O)c1nc2ccccc2n([C@H]2C[C@H]3CCC[C@@H](C2)N3C2CC3CCCC(C3)C2)c1=O` (stereo partly drawn) [Compound 44] was 22.8 nM.
For `NC(=O)CO/N=C(\C(=O)O)c1nc2ccccc2n([C@H]2C[C@H]3CCC[C@@H](C2)N3C2CC3CCCCC(C3)C2)c1=O` (stereo partly drawn) [Compound 45, (Z)-2-(2-amino-2-oxoethoxyimino)-2-(4-((1R,3R)-9-(bicyclo[4.3.1]decan-8-yl)-9-azabicyclo[3.3.1]nonan-3-yl)-3-oxo-3,4-dihydroquinoxalin-2-yl)acetic acid], the Ki in assay [1] worked out at 0.11 nM. For the same molecule, in assay [2], the “GTPγS ORL-1 Emax [mean ± SEM]” value came out at 81 ± 5% and the EC50 was found to be 2.17 nM.
For `CON=C(CCC(=O)O)c1nc2ccccc2n([C@H]2C[C@H]3COC[C@@H](C2)N3C2CC3CCCCC(C3)C2)c1=O` (stereo partly drawn) [Compound 48], the “GTPγS ORL-1 Emax [mean ± SEM]” value in assay [2] is recorded as 44 ± 5%.
For `CN(C)C(=O)C(=NOCC(=O)O)c1nc2ccccc2n([C@H]2C[C@H]3CCC[C@@H](C2)N3C2CC3CCCC(C3)C2)c1=O` (stereo partly drawn) [Compound 51], the Ki in assay [1] was determined as 22.9 nM.
Regarding `CNC(=O)C(=NOCC(=O)O)c1nc2ccccc2n([C@H]2C[C@H]3CCC[C@@H](C2)N3C2CC3CCCCC(C3)C2)c1=O` (stereo partly drawn) [Compound 54], in assay [1], the Ki came to 3.53 nM. Also, in assay [2], the “GTPγS ORL-1 Emax [mean ± SEM]” value was 21.33 ± 0.33% and the EC50 worked out at 91.2 nM.
The corresponding values for `NC(=O)C(=NOCC(=O)O)c1nc2ccccc2n([C@H]2C[C@H]3CCC[C@@H](C2)N3C2CC3CCCCC(C3)C2)c1=O` (stereo partly drawn) [Compound 55] are 1.64 nM, 13.33 ± 1.2% and 16.4 nM.
Regarding `COCCO/N=C(\CCC(=O)O)c1nc2ccccc2n([C@H]2C[C@H]3CCC[C@@H](C2)N3C2CC3CCCCC(C3)C2)c1=O` (stereo partly drawn) [Compound 56], the Ki in assay [1] was 3.1 nM.
Consider `CC(C)(ON=C(C(N)=O)c1nc2ccccc2n([C@H]2C[C@H]3CCC[C@@H](C2)N3C2CC3CCCC(C3)C2)c1=O)C(=O)O` (stereo partly drawn) [Compound 57], for which the Ki in assay [1] amounted to 13.1 nM.
For `CNC(=O)CCC(=NOCC(=O)O)c1nc2ccccc2n([C@H]2C[C@H]3CCC[C@@H](C2)N3C2CC3CCCCC(C3)C2)c1=O` (stereo partly drawn) [Compound 58], in assay [1], the Ki was 4.67 nM.
The same measure, in the same setting: the figure for `NC(=O)CCC(=NOCC(=O)O)c1nc2ccccc2n([C@H]2C[C@H]3CCC[C@@H](C2)N3C2CC3CCCCC(C3)C2)c1=O` (stereo partly drawn) [Compound 59] is 4.74 nM.
Regarding `N#CC(=NOCC(=O)O)c1nc2ccccc2n([C@H]2C[C@H]3CCC[C@@H](C2)N3C2CC3CCCC(C3)C2)c1=O` (stereo partly drawn) [Compound 65, 2-((((4-((1R,1′R,3r,3′R,5S,5′S)-[3,9′-bi(9′-azabicyclo[3.3.1]nonan)]-3′-yl)-3-oxo-3,4-dihydroquinoxalin-2-yl)(cyano)methylene)amino)oxy)acetic acid], in assay [1], the Ki came out at 4.88 nM. Also, in assay [2], the “GTPγS ORL-1 Emax [mean ± SEM]” value is −1%.
As to `NC(=O)CO/N=C(\C(N)=O)c1nc2ccccc2n([C@H]2C[C@H]3CCC[C@@H](C2)N3C2CC3CCCCC(C3)C2)c1=O` (stereo partly drawn) [Compound 66], the Ki in assay [1] amounted to 0.41 nM. In assay [2], the “GTPγS ORL-1 Emax [mean ± SEM]” value is 21.67 ± 2.03% and the EC50 turned out to be 1.81 nM.
On to `CC(C)ON=C(CCC(=O)O)c1nc2ccccc2n([C@H]2C[C@H]3CC[C@@H](C2)N3C2CC3CCCCC(C3)C2)c1=O` (stereo partly drawn) [Compound 67], for which the Ki at kappa opioid receptor was determined as 104 nM; in assay [1], 8.77 nM; on delta opioid receptor, 11.1 µM. For the same molecule, the “GTPγS ORL-1 Emax [mean ± SEM]” value in assay [2] came to 27 ± 1.15%. In addition, in assay [2], the EC50 was determined as 27.6 nM.

The values are drawn from patent US9040533B2, “Oxime-substituted-quinoxaline-type piperidine compounds as ORL-1 modulators” (priority 2012, dated 2015).
